What all share (assay): biochemical
In test [1] the target is T1, DYRK1A (Homo sapiens, UniProt Q13627). The note with it: read-out: Niraparib.
Another test addresses DYRK1B (Homo sapiens, UniProt Q9Y463). The note with it: read-out: Rucaparib.
In test [2] the target is T1, DYRK1A. The note with it: read-out: Rucaparib.

Chains of the proteins cited; added tags and fusions are not shown.
UniProt Q9Y463, whole entry: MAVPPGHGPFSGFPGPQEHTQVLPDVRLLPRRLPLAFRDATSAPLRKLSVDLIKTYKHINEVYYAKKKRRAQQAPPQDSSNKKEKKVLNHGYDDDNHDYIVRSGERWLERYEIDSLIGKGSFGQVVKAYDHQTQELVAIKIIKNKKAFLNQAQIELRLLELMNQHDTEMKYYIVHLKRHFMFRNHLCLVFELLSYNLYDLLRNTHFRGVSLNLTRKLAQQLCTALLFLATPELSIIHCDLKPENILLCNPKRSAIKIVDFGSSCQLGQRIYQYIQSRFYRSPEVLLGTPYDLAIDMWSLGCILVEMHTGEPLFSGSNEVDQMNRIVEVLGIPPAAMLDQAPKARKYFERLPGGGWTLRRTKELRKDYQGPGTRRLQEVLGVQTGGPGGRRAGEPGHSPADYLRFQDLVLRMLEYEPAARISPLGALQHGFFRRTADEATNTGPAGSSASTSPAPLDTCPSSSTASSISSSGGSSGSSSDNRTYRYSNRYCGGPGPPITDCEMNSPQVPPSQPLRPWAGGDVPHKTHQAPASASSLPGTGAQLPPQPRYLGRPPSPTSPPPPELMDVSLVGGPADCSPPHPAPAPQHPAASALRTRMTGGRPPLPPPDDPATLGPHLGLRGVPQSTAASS

Like-named read-outs stand apart in the source and are kept apart here.

`NC(=O)c1cccc2cn(-c3ccc([C@@H]4CCCNC4)cc3)nc12` [Niraparib]: the inhibition at 1 µM on DYRK1A [1] was 76%.
For the molecule `CNCc1ccc(-c2[nH]c3cc(F)cc4c3c2CCNC4=O)cc1` [Rucaparib], the inhibition at 1 µM on DYRK1B is 53%; on DYRK1A [2], 49%.

The values are drawn from paper PMC7026418, “The kinase polypharmacology landscape of clinical PARP inhibitors” (Scientific Reports, 2020).
